Results on one compound are retold here after US8518968B2, “Hydrazone and diacyl hydrazine compounds and methods of use” (The United States of America, as represented by the …, priority 2009, dated 2013).

This assay relates to JEKO-1 cells. The assay can be described thus: Cytotoxic activity against JEKO-1 cells (MTT cell viability). The settings on record: incubated 2 days, four parameter logistic fit.

In the case of `O=C(N/N=C/C=C/c1ccc([N+](=O)[O-])o1)c1cc([N+](=O)[O-])cc([N+](=O)[O-])c1O`, the concentration for half-maximal inhibition (IC50) was 30 µM.

The term IC50 denotes the concentration that gives 50% inhibition. A lower IC50 goes with greater potency.
